Patent publication US12310975B2, “Modulators of BCL6 proteolysis and associated methods of use” (Arvinas Operations, Inc., priority 2019, dated 2025)

Target: BCL6 (Homo sapiens (Human), UniProt P41182)
Test: Immunofluorescence high content imaging of BCL6 degradation in T47D cells
Method: Immunofluorescence Protocol for High Cotent Imaging of BCL6
T47D cells were seeded in 100 μl volume of RPMI1640-10% FBS in a 96-well black/clear bottom plates for adherent lines (Corning #3904).
Day 1. T47D breast cancer epithelial cells were seeded at a density so that confluence is ˜70-90% at endpoint. Cells were seeded at 7K/0.1 ml/well the morning prior to the addition of exemplary bifunctional degradation compounds.
Day 2. Prepare an 11 point 3-fold serial dilution of exemplary bifunctional compound in DMSO and aliquot an appropriate volume to cell growth media to generate a 2× final concentration of exemplary bifunctional compound. Add an equal volume (0.1 ml) of 2× exemplary bifunctional compound/media mix to previously plated cells, for a final top concentration in aqueous cell growth media of 0.1 or 1 μM. Incubate for 3 days at 37° C., 5% CO2.
Day 5 Immunofluorescence. Discard cell media. Wash wells with 200 μl of room temperature phosphate-buffered saline (PBS). Prepared 4% paraformaldehyde (PFA) from 16% PFA (Electron Microscopy Sciences #15710) using 1×PBS. Fifty μl of 4% PF was added to each well and incubate for 15 minutes at room temperature to fix the cells. The PFA was aspirated and the cells washed twice with PBS (200 μl)).
Prepared 0.1% Triton X-100 in PBS using 10% triton X-100 stock. […]
Plates were equilibrated to room temperature prior to reading. […]

- Dmax (%)**: B (50 <= B < 70)
- IC50 (read-out: IC50 (nM)***): 50 to 100 nM
Compound: CNC(=O)COc1cc2cc(Nc3nc(N4CCO[C@H](COc5ccc6c(c5)C(=O)N(C5CCC(=O)NC5=O)C6=O)C4)ncc3Cl)ccc2n(C(C)C)c1=O (some centres unmarked)
